Assay [1] addresses T1, VEGF (Homo sapiens, UniProt P15692).
T1 construct: made in house
In kind it is binding. The note with it: FP tracer.

Amino acid sequences for entries named in this document (tags omitted). Residues count along the entry.
UniProt P15692, 27-191 isoform P15692-4: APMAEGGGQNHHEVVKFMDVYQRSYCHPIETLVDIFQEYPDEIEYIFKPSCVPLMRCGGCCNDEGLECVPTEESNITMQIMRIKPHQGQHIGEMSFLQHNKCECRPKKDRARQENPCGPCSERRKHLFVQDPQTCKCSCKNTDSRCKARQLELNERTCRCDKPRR
UniProt P01375, 77-233 limits assumed: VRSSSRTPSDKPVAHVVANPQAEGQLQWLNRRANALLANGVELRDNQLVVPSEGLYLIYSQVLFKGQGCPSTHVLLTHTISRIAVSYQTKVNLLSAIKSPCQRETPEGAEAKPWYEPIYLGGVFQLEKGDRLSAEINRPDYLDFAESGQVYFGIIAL

Assay [2] addresses T1, VEGF. In words: VEGF competition fluorescence polarization (FP) assay. In kind it is binding.
Assay [3] addresses T2, TNFα (binding to immobilized TNFR1) (Homo sapiens, UniProt P01375).
T2 construct: purchased R&D Systems 210-TA-020 (TNFα); 636-R1-025 (sTNF RI)
Kind of assay: TNFα/TNFR competition ELISA. The note with it: read-out: TNFa-TNFR ELISA IC50; Table 14.

Like-named read-outs stand apart in the source and are kept apart here.

One may read the Kd as the concentration at which binding is half-saturated. Lower therefore signals tighter binding. A word on the Ki: it is the equilibrium dissociation constant of an inhibitor or competing ligand from its target. As usually defined, the IC50 is the concentration at which inhibition is half-maximal.

At VEGF [1], “(BODIPY^TMR)-X-CDIHV(Nle)WEWECFERL-NH2 [BODIPY-v114*ΔNT]” had an equilibrium dissociation constant (Kd) of 0.021 µM.
For “VDNKFNKEXCNZRAIEAALDPNLNDAQFHAKIWZIIXDC [S28]”, affinity at VEGF [2] (Table 12, optimized designs) was put at a Ki of 0.34 µM.
As to “VDNKFNKEXHNZRAIEAALDPNLNDQQFHAKIWZIIXD [α/β-VEGF-1-linear]”, the inhibitory constant (Ki) at VEGF [2] (Table 12, optimized designs) was > 50 µM; on VEGF [2] (VEGF binding, competition FP assay (Table 1)), > 50 µM; on VEGF [2] (read-out: Ki for VEGF, competition FP assay) it was > 50 µM.
As for “WRIGEAGTDPNLNHQQFRAKILZIWXDP-NH2 [α/β-TNFα-12]”, the IC50 in assay [3] was > 10 µM.
Still for that read-out and setting: the result for “XWRIGEAGTDPNLNHQQFRAKILZIWX-NH2 [α/β-TNFα-15]” reads > 10 µM.

Source of the values: patent publication US9284362B2, “α/β-peptide mimics of Z-domain peptides” (Wisconsin Alumni Research Foundation, priority 2014, dated 2016).
